Target: soluble fraction of uPAR comprising amino acids 1-277
Experiment: fluorescence polarisation

unlabeled GFD peptide
Ki: 220 nM

— publication PMC3220747
